{
  "source": "patent US4983602A",
  "about": "“3'-hydroxybenzoxazinorifamycin derivative, process for preparing the same and antibacterial agent containing the same” (Kanegafuchi Kagaku Kogyo Kabushiki Kaisha, priority 1988, dated 1991)",
  "test_system": "Mycobacterium tuberculosis H37 Rv",
  "experiment": "Therapeutic effect on mice infected with tuberculosis, groups of 20 (FIG. 1)",
  "details": "oral, 200 μg/mouse once a day, six days a week; for 38 days from the beginning of the treatment",
  "data": [
    {"smiles": "COC1C=COC2(C)Oc3c(C)c(O)c4c(=O)c(c5oc6cc(N7CCN(CC(C)C)CC7)cc(O)c6nc-5c4c3C2=O)NC(=O)C(C)=CC=CC(C)C(O)C(C)C(O)C(C)C(OC(C)=O)C1C", "note": "(stereo not shown) [Derivative No. 2]", "values": [
      {"measurement": "dead mice", "result": "there was not observed any dead mouse"}
    ]}
  ]
}
